Source: US6416987B1, “Mutants of thymidylate synthase and uses thereof” (Sloan Kettering Institute for Cancer Research, priority 1997, dated 2002)

Legend:
[1] = system: TS-negative FSthy21 cells transfected with D49G mutant human TS cDNA; format: cell-based, mouse; conditions: BW1843U89; D49G/clone (1) vs wild-type clone (1)
[2] = system: TS-negative FSthy21 cells transfected with I108F mutant human TS cDNA; format: cell-based, mouse; conditions: BW1843U89; 1108F/clone (2) vs wild-type clone (1)
[3] = system: TS-negative FSthy21 cells transfected with L221S mutant human TS cDNA; format: cell-based, mouse; conditions: BW1843U89; L221S/clone (2) vs wild-type clone (1)
[4] = system: TS-negative FSthy21 cells transfected with F225Y mutant human TS cDNA; format: cell-based, mouse; conditions: BW1843U89; F225Y/clone (1) vs wild-type clone (1)
[5] = system: TS-negative FSthy21 cells transfected with L221A mutant human TS cDNA; format: cell-based, mouse; conditions: BW1843U89; L221A/clone (2) vs wild-type clone (1)
[6] = system: TS-negative FSthy21 cells transfected with F225L mutant human TS cDNA; format: cell-based, mouse; conditions: BW1843U89; F225L/clone (3) vs wild-type clone (1)
[7] = system: TS-negative FSthy21 cells transfected with L221I mutant human TS cDNA; format: cell-based, mouse; conditions: BW1843U89; L221I/clone (1) vs wild-type clone (1)
[8] = system: TS-negative FSthy21 cells transfected with G52S mutant human TS cDNA; format: cell-based, mouse; conditions: BW1843U89; G52S/clone (3) vs wild-type clone (1)
[9] = system: TS-negative FSthy21 cells transfected with K47E mutant human TS cDNA; format: cell-based, mouse; conditions: BW1843U89; K47E/clone (2) vs wild-type clone (1)
[10] = system: TS-negative FSthy21 cells transfected with F225W mutant human TS cDNA; format: cell-based, mouse; conditions: BW1843U89; F225W/clone (2) vs wild-type clone (1)
[11] = system: TS-negative FSthy21 cells transfected with I108A mutant human TS cDNA; assay: Growth inhibition assay (alamar Blue), I108A transfectants; conditions: BW1843U89

Cc1nc2ccc3ccc(CNc4ccc5c(c4)CN([C@@H](CCC(=O)O)C(=O)O)C5=O)cc3c2c(=O)[nH]1
Ratio of IC50 values for mutant/wt cells [1]: 5.3(1)
Ratio of IC50 values for mutant/wt cells [2]: 1.2(1)
Ratio of IC50 values for mutant/wt cells [3]: 2.7(1)
Ratio of IC50 values for mutant/wt cells [4]: 2.6(1)
Ratio of IC50 values for mutant/wt cells [5]: 2.7(1)
Ratio of IC50 values for mutant/wt cells [6]: 2.8(1)
Ratio of IC50 values for mutant/wt cells [7]: 2.7(1)
Ratio of IC50 values for mutant/wt cells [8]: 3.0(1)
Ratio of IC50 values for mutant/wt cells [9]: 2.7(1)
Ratio of IC50 values for mutant/wt cells [10]: 22(1)
Ratio of IC50 values for mutant/wt cells ([11]; 1108A/clone (1) vs wild-type clone (2)): 6.2(2)^2
Ratio of IC50 values for mutant/wt cells ([11]; 1108A/clone (2) vs wild-type clone (2)): 7.4(2)
Ratio of IC50 values for mutant/wt cells ([11]; 1108A/clone (3) vs wild-type clone (2)): 7.8(2)
